# Test results published in US5369105A (priority 1993, dated 1994).
# By UniProt entry, the sequences of proteins in these tests, tags left out. Where a name states a change or a piece, a line headed by the entry shows the natural chain unless it says otherwise.
# UniProt P41144: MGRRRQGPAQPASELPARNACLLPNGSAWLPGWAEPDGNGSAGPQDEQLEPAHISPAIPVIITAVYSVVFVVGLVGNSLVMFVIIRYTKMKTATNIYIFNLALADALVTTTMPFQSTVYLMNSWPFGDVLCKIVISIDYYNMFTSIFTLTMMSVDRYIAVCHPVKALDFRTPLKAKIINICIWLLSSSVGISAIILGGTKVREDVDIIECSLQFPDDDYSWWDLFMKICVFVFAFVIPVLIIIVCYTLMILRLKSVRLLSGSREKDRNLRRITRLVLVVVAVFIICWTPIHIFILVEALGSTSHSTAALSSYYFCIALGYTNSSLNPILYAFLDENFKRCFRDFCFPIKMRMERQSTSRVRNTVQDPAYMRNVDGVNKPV
# Assays:
# [1] = tested on: K+-evoked, Ca2+-dependent release of preloaded [3H]glutamate in slices of SNR; assay: In vitro EAA release studies in slices of substantia nigra reticulata; format: cell-based; conditions: 1 μM, rat SNR slices
# [2] = tested on: rat paw pressure test for analgesia; assay: rat paw pressure test for analgesia; conditions: iv
# kappa opioid [3] = target: kappa opioid (Cavia porcellus, UniProt P41144); assay: kappa opioid receptor affinity and selectivity; conditions: read-out: Ki (kappa opioid affinity)
# kappa opioid [4] = assay: kappa opioid receptor affinity and selectivity; conditions: selectivity
# [5] = tested on: MPTP-treated Parkinsonian marmoset; assay: Intracerebral injections into the medial globus pallidus (GPM) in the MPTP-treated primate
# [6] = tested on: reserpine-treated Parkinsonian rat; assay: Intracerebral injections into the entopeduncular nucleus in reserpine-treated Parkinsonian rats; conditions: unilateral injection into entopeduncular nucleus
smiles,measurement,setting,value
CN(C(=O)Cc1cccc2occc12)[C@H]1CC[C@@]2(CCCO2)C[C@@H]1N1CCCC1,"attenuation of K+-evoked, Ca2+-dependent release of preloaded [3H]glutamate",[1]; 40 mM K+,over 98%
same,release of [3H]glutamate induced by 40 mM K+ (in words),[1]; N=6,completely inhibited
same,MPE50 in the rat paw pressure test for analgesia,[2],0.030
same,Ki,kappa opioid [3],0.73 nM
same,μ/kappa ratio,kappa opioid [4],798
same,reversal of Parkinsonian rigidity and akinesia,"[5]; bilateral injections into GPM, 20 mM and 50 mM",marked reversal of Parkinsonian rigidity and akinesia
same,latency of onset of anti-Parkinsonian effects,"[5]; higher dose (50 mM), GPM",less than 4 minutes
same,stereotyped movements,"[5]; higher dose (50 mM), GPM",some stereotyped movements were seen
same,locomotor activity / mobility score,[5]; injections into GPM,returned to near normal levels
same,latency of onset of anti-Parkinsonian effects,"[5]; lower dose (20 mM), GPM",approximately 25 minutes
same,stereotypy,"[5]; lower dose (20 mM), GPM",no stereotypy was seen
same,rigidity,[6]; reserpine 4 mg/kg rats,reductions in rigidity
same,locomotor score (distance moved),"[6]; reserpine 4 mg/kg rats, increasing doses",increasing amounts of locomotor activity
same,alleviation of Parkinsonian symptoms,[6]; reserpine-treated rat,marked dose-dependent alleviation of Parkinsonian symptoms
